One assay has as its target Recombinant yeast Hsp90 (Saccharomyces cerevisiae, UniProt P02829). The assay can be described thus: Inhibition of Hsp90 ATPase activity, production of inorganic phosphate. The class given is biochemical.
Assay [1] deals with Hsp90-dependent client proteins, Raf and HER-2. The assay can be described thus: Western Blot of Hsp90-dependent client proteins in MCF-7 breast cancer cells. The following applies: increasing concentrations.
The mark [2] stands for this setting: read-out: IC50 (μm), incubated with ATP, table.
Setting [3] is: read-out: IC50 / inhibitory activity, incubated with ATP.

The chains behind the UniProt entries cited, without tags or fusion partners.
UniProt P02829, whole entry: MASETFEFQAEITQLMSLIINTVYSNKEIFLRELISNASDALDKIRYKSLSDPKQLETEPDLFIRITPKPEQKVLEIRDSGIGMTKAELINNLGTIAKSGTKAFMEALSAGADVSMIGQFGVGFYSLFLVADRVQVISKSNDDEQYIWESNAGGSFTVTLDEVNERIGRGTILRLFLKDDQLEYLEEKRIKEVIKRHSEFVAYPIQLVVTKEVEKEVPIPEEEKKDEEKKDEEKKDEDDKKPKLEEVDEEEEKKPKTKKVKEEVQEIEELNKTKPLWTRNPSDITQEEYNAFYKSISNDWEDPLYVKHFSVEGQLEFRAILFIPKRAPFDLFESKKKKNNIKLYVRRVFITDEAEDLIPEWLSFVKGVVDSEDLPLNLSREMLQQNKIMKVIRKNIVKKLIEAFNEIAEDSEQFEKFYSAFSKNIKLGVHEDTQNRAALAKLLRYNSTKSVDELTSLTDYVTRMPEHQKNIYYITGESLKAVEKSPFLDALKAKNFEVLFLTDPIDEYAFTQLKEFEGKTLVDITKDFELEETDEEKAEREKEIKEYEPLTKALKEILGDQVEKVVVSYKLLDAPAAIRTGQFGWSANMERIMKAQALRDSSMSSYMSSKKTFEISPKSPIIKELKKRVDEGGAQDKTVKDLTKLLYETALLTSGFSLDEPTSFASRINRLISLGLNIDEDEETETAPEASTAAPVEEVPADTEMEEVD

Molecules are shown by their SMILES. Where two headings read alike, the source gives them in different places.

On to `COC(=O)c1c(O)cc(O)c(Cl)c1CCC(=O)Nc1cc(OC)c(OC)cc1OC`, for which the IC50 at Recombinant yeast Hsp90 (setting [2]) and at Recombinant yeast Hsp90 (setting [3]) was more than 40 µM in each case.
`COC(=O)c1c(O)cc(O)c(Cl)c1CCC(=O)Nc1cc(O)c(OC)cc1O`: the “Hsp90-dependent client proteins Raf and HER-2 by Western Blot” value in assay [1] is given as “decrease”. The IC50 at Recombinant yeast Hsp90 (setting [2]) is 1.8 µM; on Recombinant yeast Hsp90 (setting [3]), 5.9 µM.

Source of the values: US8188306B2, “Heat shock protein 90 inhibitors” (University of Kansas, priority 2004, dated 2012).
